Assay results published in patent publication US20150203498A1, “INHIBITORS OF PHOSPHODIESTERASE 10 ENZYME” (Janssen Pharmaceutica NV, priority 2012, published 2015).
Where “and” joins values, the source holds several entries; their conditions need not be identical. Equal entries are not always repeated.

By UniProt entry, the sequences of proteins in these tests, tags left out. Residues count along the entry.
UniProt Q9QYJ6, whole entry: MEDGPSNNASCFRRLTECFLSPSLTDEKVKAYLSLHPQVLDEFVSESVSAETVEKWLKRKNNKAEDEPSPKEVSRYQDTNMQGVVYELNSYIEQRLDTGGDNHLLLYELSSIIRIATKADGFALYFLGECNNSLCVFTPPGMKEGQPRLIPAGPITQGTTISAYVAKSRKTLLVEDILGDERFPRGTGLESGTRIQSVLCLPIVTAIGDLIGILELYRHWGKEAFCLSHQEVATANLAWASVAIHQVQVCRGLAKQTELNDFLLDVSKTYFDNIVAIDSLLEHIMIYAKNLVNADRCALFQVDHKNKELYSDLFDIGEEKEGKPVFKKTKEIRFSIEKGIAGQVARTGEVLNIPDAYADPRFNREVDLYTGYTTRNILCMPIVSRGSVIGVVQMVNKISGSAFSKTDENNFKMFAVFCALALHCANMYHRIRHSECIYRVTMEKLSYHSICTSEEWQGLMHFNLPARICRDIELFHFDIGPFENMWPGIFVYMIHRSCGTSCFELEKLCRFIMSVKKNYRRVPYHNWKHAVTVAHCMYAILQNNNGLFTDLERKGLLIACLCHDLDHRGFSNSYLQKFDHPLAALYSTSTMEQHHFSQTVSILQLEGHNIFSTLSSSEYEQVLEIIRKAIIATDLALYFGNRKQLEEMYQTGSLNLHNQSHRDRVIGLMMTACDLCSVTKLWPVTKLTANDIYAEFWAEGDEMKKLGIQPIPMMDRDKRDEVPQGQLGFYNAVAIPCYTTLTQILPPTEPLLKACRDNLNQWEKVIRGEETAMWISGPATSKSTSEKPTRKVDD
UniProt Q9Y233, 267-1055: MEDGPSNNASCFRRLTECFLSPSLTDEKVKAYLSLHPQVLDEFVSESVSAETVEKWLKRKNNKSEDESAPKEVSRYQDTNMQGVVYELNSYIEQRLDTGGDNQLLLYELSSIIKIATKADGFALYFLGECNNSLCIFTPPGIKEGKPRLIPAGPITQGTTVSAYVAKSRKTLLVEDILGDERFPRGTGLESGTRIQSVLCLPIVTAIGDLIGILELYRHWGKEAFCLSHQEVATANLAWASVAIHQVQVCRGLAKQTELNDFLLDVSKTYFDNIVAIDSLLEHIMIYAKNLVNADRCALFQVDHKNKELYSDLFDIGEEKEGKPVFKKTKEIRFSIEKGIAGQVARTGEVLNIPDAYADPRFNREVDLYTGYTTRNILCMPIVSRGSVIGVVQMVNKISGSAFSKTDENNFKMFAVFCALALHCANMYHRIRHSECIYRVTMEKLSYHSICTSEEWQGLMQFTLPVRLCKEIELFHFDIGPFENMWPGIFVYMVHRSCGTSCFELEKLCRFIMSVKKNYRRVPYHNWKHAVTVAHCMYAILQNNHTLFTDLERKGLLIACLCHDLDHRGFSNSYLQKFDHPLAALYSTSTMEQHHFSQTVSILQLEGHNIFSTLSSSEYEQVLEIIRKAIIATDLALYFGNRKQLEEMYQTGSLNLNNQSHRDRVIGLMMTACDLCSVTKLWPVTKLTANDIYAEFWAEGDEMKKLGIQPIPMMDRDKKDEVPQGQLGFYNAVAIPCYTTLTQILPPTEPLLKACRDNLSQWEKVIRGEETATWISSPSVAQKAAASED

Tests used:
[1] = target: rPDE10A2 (Rattus norvegicus, UniProt Q9QYJ6); assay: In vitro assay PDE10A, rat recombinant enzyme (SPA, 3H-cAMP); format: biochemical; conditions: -log IC50 expressed in mol/L; 60 nM cAMP
[2] = target: hPDE10A2 (Homo sapiens, UniProt Q9Y233); assay: In vitro assay PDE10A, human recombinant enzyme (SPA, 3H-cAMP); format: biochemical; conditions: -log IC50 expressed in mol/L; 60 nM cAMP
[3] = Pharmacokinetics of oral microdose in healthy subjects; conditions: single oral dose of 100 μg, fasted
[4] = tested on: plasma proteins; assay: Plasma protein binding by equilibrium dialysis; conditions: human plasma (males)
[5] = tested on: apomorphine-induced stereotypy; assay: Apomorphine-induced stereotypy in rats (APO); format: in vivo, rat; conditions: apomorphine 1.0 mg/kg i.v., 1 hour pre-treatment with test compound, dose at which 50% of animals show the effect

In the case of `Cc1nc2c(N3CCOCC3)ccnn2c1-c1ccc(C2CCOCC2)nc1`, the “PDE10A2 pIC50 - rat enzyme” value [1] is reported as 7.5.

With `COCCc1ccc(-c2c(C)nc3c(N4CCOCC4)ccnn23)cn1` the “PDE10A2 pIC50 - human enzyme” value [2] was 7.22, the tmax ([3]; Median (Min-Max)) was 0.50 (0.50-0.75) h and the AUClast ([3]; mean) was 0.595 ng·h/mL. The “AUC∞” value ([3]; mean) was 0.665 ng·h/mL, the Cmax ([3]; mean) was 0.367 ng/mL and the t1/2 ([3]; mean) was 5.4 h. The λz ([3]; mean) was 0.158 h⁻¹, the CL/F ([3]; mean, listed as compound 1 of WO2011/051342) was 183 ± 90.8 L/h and 183 L/h and the “Average percentage of free compound in plasma” value ([4]; 0.1 μg/ml) was 17.6%. The “Average percentage of free compound in plasma” value ([4]; 1 μg/ml) was 18.2%, the “Average percentage of free compound in plasma” value ([4]; 2 μg/ml) was 17.9% and the “Average percentage of free compound in plasma” value ([4]; 5 μg/ml) was 18.4%.

In the case of `Cc1nc2c(N3CCOCC3)nccn2c1-c1ccc(C2CCOCC2)nc1`, the “PDE10A2 pIC50 - rat enzyme” value [1] is reported as 6.83, the “PDE10A2 pIC50 - human enzyme” value [2] is reported as 6.78 and the “APO ED50” value [5] is reported as 1.0 mg/kg.

With `COCCc1ccc(-c2c(C)nc3c(N4CCOCC4)nccn23)cn1` the “APO ED50” value [5] was 1.0 mg/kg.
